Laboratory results reported in the NIST ThermoML archive (doi:10.1016/j.fluid.2005.06.017).
Numbers after ± are expanded uncertainties.

Conditions: 373.15 K; Liquid; Ebulliometric method (Recirculating still)

CCCCOCCCC [dibutyl ether]
vapor or sublimation pressure: 28.4 ± 3 kPa
